## Experimental melting point values from OPERA 2.9

Melting points are in °C.

{"smiles": "Nn1c(-c2cccnc2)n[nH]c1=S", "mp (°C)": "191"}
{"smiles": "COc1ccc2c(c1)N(CC(C)CN1CCC(O)CC1)c1ccccc1S2", "stereo": "centres undefined", "mp (°C)": "138"}
{"smiles": "O=C(O)c1ccc(N2CCCC2)c([N+](=O)[O-])c1", "mp (°C)": "260"}
{"smiles": "COc1ccc(-n2c(C)c(C)c3c(N)ncnc32)cc1", "mp (°C)": "232"}
{"smiles": "O=c1nc(CCl)[nH]c2c1oc1ccccc12", "mp (°C)": "99"}
{"smiles": "CCOc1ccccc1C(=O)CBr", "mp (°C)": "75"}
{"smiles": "CC(=O)N1CCCc2cc(S(=O)(=O)Cl)ccc21", "mp (°C)": "128"}
{"smiles": "Nc1ccc(S(=O)(=O)C(F)(F)F)cc1N", "mp (°C)": "110"}
{"smiles": "CCOC(=O)c1[nH]c(C)c(C(=O)O)c1C", "mp (°C)": "104"}
{"smiles": "COc1cc(OCc2ccccc2)ccc1C=O", "mp (°C)": "95.5"}
{"smiles": "CCOC(=O)Nc1ccc(C(=O)O)cc1", "mp (°C)": "171"}
{"smiles": "O=CC(C=O)c1nc2ccccc2[nH]1", "mp (°C)": "30"}
{"smiles": "CCOC(=O)c1c(N)n(CCO)c2nc3ccccc3nc12", "mp (°C)": "227"}
{"smiles": "COC(=O)C(=CN(C)C)n1ccnn1", "mp (°C)": "120"}
{"smiles": "COc1ccc(C(=O)CC(C)=O)cc1", "mp (°C)": "53"}
{"smiles": "Clc1ccc(N2CCOCC2)nn1", "mp (°C)": "132"}
{"smiles": "CCOC(=O)Cc1ccc(C(C)=O)cc1", "mp (°C)": "56"}
{"smiles": "COc1ccc(-n2c(=S)[nH]c3ccccc32)cc1", "mp (°C)": "214"}
{"smiles": "CCNC(=O)c1ccc(N)cc1", "mp (°C)": "74"}
{"smiles": "CC(=O)O[C@]1(C(C)=O)CC[C@H]2[C@@H]3CC(Cl)C4=CC(=O)CC[C@]4(C)[C@H]3CC[C@@]21C", "stereo": "stereo not given in full", "mp (°C)": "187.3"}
{"smiles": "CC(C)(C)P(=O)(O)O", "mp (°C)": "192"}
{"smiles": "NNc1ncccn1", "mp (°C)": "91"}
{"smiles": "CCOC(=O)CNC(=O)c1cn(CC)c2nc(C)ccc2c1=O", "mp (°C)": "198"}
{"smiles": "Cn1nc(Br)c(=O)n(C)c1=O", "mp (°C)": "96"}
{"smiles": "Brc1cc(Br)ncn1", "mp (°C)": "50.5"}
{"smiles": "Cc1cc(C=O)c(C)n1-c1ccc(F)cc1", "mp (°C)": "101"}
{"smiles": "Cc1sc(N)nc1-c1ccc(Cl)cc1", "mp (°C)": "147"}
{"smiles": "c1ccc2c(c1)NCCS2", "mp (°C)": "36"}
{"smiles": "Nc1nc2ccccc2o1", "mp (°C)": "125"}
{"smiles": "CCCCCCCC/C=C\\CCCCCCCCOC(=O)C(CC(=O)[O-])S(=O)(=O)[O-].[Na+].[Na+]", "stereo": "stereo partly drawn", "mp (°C)": "264"}

Extract of 4 entries:

SMILES	mp (°C)
COc1cc(OCc2ccccc2)ccc1C=O	95.5
CCOC(=O)c1[nH]c(C)c(C(=O)O)c1C	104
Nc1nc2ccccc2o1	125
Clc1ccc(N2CCOCC2)nn1	132

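The OPERA project collected these measurements from public sources as training and test data for property models. A listed value is a point estimate from one report or more. Method, purity and exact conditions of the single measurements are not given. The measured form (salt, isomer or mixture) is not always the one drawn. Some entries may be limits or estimates that an upstream database listed as plain numbers.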

Data: OPERA 2.9 data sets, kmansouri/OPERA on GitHub.